56 compounds from PubChem BioAssay AID2288 (National Center for Advancing Translational Sciences (NCATS), 2010) can be followed below.

This is a selection; strong and weak results do not stand in their true shares. The source made the active and inactive calls. The call rests on the fitted dose curve; in most records, active means well fitted curve in the direction sought with a large enough effect; inconclusive means small, poorly fitted or top-dose-only effect, or another doubt; inactive means no such curve, though single readings can be large or run the other way.

A short description of the assay: qHTS Assay for Modulators of miRNAs and/orActivators of miR-21.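 Further: % of control where 0% means no effect; miR-21 action dims this reporter so a rising signal means less miR-21 action.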 The following applies: HeLa miR-21 FLuc reporter, luciferase, 48 h; at 38.3 µM (top of the series). In general terms: Quantitative high-throughput screening tests each substance at several concentrations.
For the compound `COc1cc(C(=O)NCC2(N3CCOCC3)CCCCC2)cc(Cl)c1OC(C)C`, the activity change, positive = activation is inactive: 0.403%. Consider `O=C(OC1CN2CCC1CC2)c1ccc(Cl)cc1` (stereo unspecified), for which the activity change, positive = activation is inactive: -6.23%.

As for `CC(=O)Nc1ccc(Oc2c([N+](=O)[O-])cc([N+](=O)[O-])cc2[N+](=O)[O-])cc1`, the activity change, positive = activation was inactive: -3.16%. For the compound `CC(=O)Nc1ccc([As](=O)(O)O)c(O)c1`, the activity change, positive = activation was inactive: 0.796%. `CC(=O)c1ccc(N2CC2c2ccncc2)cc1` (stereo unspecified): the activity change, positive = activation was inactive: -2.3%. In the case of `C[C@H]1OP(=O)(Oc2ccccc2)C[C@@H]2O[C@@H]21` (stereo partly specified), the activity change, positive = activation is inactive: -10.6%. On to `C[C@@H]1C=CCP(=O)(Oc2ccccc2)O1` (stereo partly specified), for which the activity change, positive = activation is inactive: -0.808%. For `O=C(OCCN1CCN(CCOCc2ccccc2)CC1)C(O)(c1ccccc1)c1ccccc1`, the activity change, positive = activation is inactive: -7.81%.

`CP(=O)(Nc1ccccc1F)Oc1ccccc1` (stereo unspecified): the activity change, positive = activation is inactive: -2.35%. The value for `CC(C)c1ccc(OP(C)(=O)Nc2ccc(SC(F)(F)F)cc2)cc1` (stereo unspecified) was inactive: 6.95%.

For `CC(C)(C)C(=O)NC(Sc1ccccc1)C(Cl)(Cl)Cl` (stereo unspecified), the activity change, positive = activation was inactive: -0.868%. Take `CCOc1ccc(C2=NCC(CBr)S2)cc1` (stereo unspecified): the activity change, positive = activation is inactive: -14.7%. The value for `O=P1(Nc2nc3ccc(Cl)cc3s2)COc2ccccc2O1` (stereo unspecified) was inactive: -28%; that for `CP(=O)(Nc1ccccc1)Oc1ccc(F)cc1` (stereo unspecified) was inactive: 0.758%. For `CCCCCOc1ccc(NP(C)(=O)Oc2ccc(Cl)cc2Cl)cc1` (stereo unspecified), the activity change, positive = activation was inactive: -5.24%. For the compound `O=c1c2cc([N+](=O)[O-])ccc2[nH]c2c([N+](=O)[O-])cc([N+](=O)[O-])cc12`, the activity change, positive = activation is inactive: 17.1%.

On to `CN(C)C(=O)Oc1noc2ccccc12`, for which the activity change, positive = activation was inactive: -0.857%. Turning to `Cc1ccccc1OP(=O)(Nc1ccccn1)Oc1ccccc1C`, the activity change, positive = activation was inactive: 18.4%. Regarding `CC(=O)NC(SC(=S)N(CC(C)C)CC(C)C)C(Cl)(Cl)Cl` (stereo unspecified), the activity change, positive = activation was inactive: -0.0649%. Turning to `Cc1ccc(OP(=O)(Nc2ccccn2)Oc2ccc(C)cc2)cc1`, the activity change, positive = activation was inactive: 15.7%. Take `COC(=O)c1cc2c(s1)N=C(c1ccccc1)N(C)P2(=O)N1CCOCC1` (stereo unspecified): the activity change, positive = activation is inactive: -1.01%. Consider `CCN(CC)CCCOC(=O)C(O)(c1ccccc1)C1CCCCC1` (stereo unspecified), for which the activity change, positive = activation is inactive: 1.54%. With `CCC(=O)N1C2C3N(C(=O)CC)C1C1N(C(=O)CC)C(C(N1C(=O)CC)N3C(=O)CC)N2C(=O)CC`, the activity change, positive = activation was inactive: -1.71%. The value for `O=C(OC1CN2CCC1CC2)c1ccccc1` (stereo unspecified) was inactive: -1.01%; that for `CCOC(=O)c1ccc(NP(C)(=O)Oc2ccc(F)cc2)cc1` (stereo unspecified) was inactive: -12.2%; that for `COc1ccc(OP(C)(=O)Nc2ccc(SC(F)(F)F)cc2)cc1` (stereo unspecified) was inactive: 2.98%. In the case of `CCNC(=S)/N=C(\N)N[N+](=O)[O-]` it was inactive: -1.72%; in that of `O=C(NC1CCS(=O)(=O)C1)NP(=S)(Oc1ccccc1)Oc1ccccc1` (stereo unspecified), inactive: -5.14%. `Cc1ccc(NP(=O)(Oc2cccc(C)c2)Oc2cccc(C)c2)nc1`: the activity change, positive = activation is inactive: 2.07%. On to `CCOC(=O)NC(Sc1ccccc1)C(Cl)(Cl)Cl` (stereo unspecified), for which the activity change, positive = activation was inactive: 0.5%.

As for `c1ccc(-c2nn[nH]n2)c(-c2nn[nH]n2)c1`, the activity change, positive = activation is inactive: -2.54%. For the compound `C(Cc1nn[nH]n1)Cc1nn[nH]n1`, the activity change, positive = activation is inactive: 2.29%. The value for `Nc1ccc([As](=O)(O)c2ccc([N+](=O)[O-])cc2)cc1` was inactive: 1.46%; that for `O=C(OC1CN2CCC1CC2)c1cccc(Cl)c1` (stereo unspecified) was inactive: -4.77%. The value for `O=[N+]([O-])c1ccc(O)c(/C=N/Nc2ccc([N+](=O)[O-])cc2[N+](=O)[O-])c1` was inactive: 26.8%; that for `CC(=O)NC(SC(=S)N(C)C)C(Cl)(Cl)Cl` (stereo unspecified) was inactive: 17.5%. The value for `O=[N+]([O-])c1ccc(OP2(=O)COCCO2)cc1` (stereo unspecified) was inactive: 2.75%; that for `O=[N+]([O-])c1ncn(CCn2cnc([N+](=O)[O-])n2)n1` was inactive: 0.0625%; that for `Cc1cc(-c2cccc3ccccc23)c(C)cn1.O=[N+]([O-])c1cc([N+](=O)[O-])c(O)c([N+](=O)[O-])c1` was inactive: 15.3%. Consider `O=[As](O)(c1ccccc1)c1ccc(O)cc1`, for which the activity change, positive = activation is inactive: 3.93%.

On to `C[C@H]1OP(=O)(Oc2ccccc2)[C@H](O)[C@H](O)[C@H]1N=[N+]=[N-]` (stereo partly specified), for which the activity change, positive = activation was inactive: 1.1%. As to `CN(C)CCOC(=O)C(O)(c1ccccc1)C1CCCCC1` (stereo unspecified), the activity change, positive = activation is inactive: 1.08%. With `O=P(Nc1nc2ccccc2s1)(c1ccccc1)c1ccccc1`, the activity change, positive = activation was inactive: -9.7%. Turning to `COc1ccc(NP(C)(=O)Oc2ccccc2OC)cc1` (stereo unspecified), the activity change, positive = activation was inactive: 3.45%. With `COc1ccc(OP(C)(=O)Nc2cccc(Br)c2)cc1` (stereo unspecified), the activity change, positive = activation was inactive: -4.07%. In the case of `O=P(Nc1ccccn1)(c1ccc(Br)cc1)c1ccc(Br)cc1` it was inactive: 9.28%; in that of `CN(C)C1(CNC(=O)c2ccc(Cl)c(S(N)(=O)=O)c2)CCCCC1`, inactive: 2.04%; in that of `Cc1ccccc1NP(C)(=O)Nc1ccccc1C`, inactive: -5.69%. As to `CP(=O)(Nc1ccc2c(c1)OCCO2)Oc1ccccc1` (stereo unspecified), the activity change, positive = activation was inactive: -11.7%.

Consider `CCOP(C)(=S)SCC(=O)NC(C)(CC)C(=O)O` (stereo unspecified), for which the activity change, positive = activation is inactive: -6.59%. Turning to `c1nnnn1CCn1cnnn1`, the activity change, positive = activation was inactive: -0.02%.

In the case of `CP(=O)(Nc1ccc(SC(F)(F)F)cc1)Oc1ccc(F)cc1` (stereo unspecified), the activity change, positive = activation is inactive: 7.95%. The value for `CC(C)C(=O)NC(Sc1ccccc1)C(Cl)(Cl)Cl` (stereo unspecified) was inactive: -1.36%. As to `O=P(Nc1nccs1)(c1ccccc1)c1ccccc1`, the activity change, positive = activation is inactive: -0.196%.

On to `CN(C)C(=O)OCCc1n(C)cc[n+]1C`, for which the activity change, positive = activation is inactive: 0.538%. In the case of `CC(C)=N/N=C(\N)N[N+](=O)[O-]`, the activity change, positive = activation was inactive: -1.02%.
